This is an account of results in US8338348B2, “Skin cleansing compositions with polyglycerol esters and hydrophobically modified polymers” (Johnson & Johnson Consumer Companies, Inc., priority 2010, dated 2012).

For one data set, the system named is EpiDerm™ Skin Model. Put plainly: Skin Irritancy Potential Test via in vitro skin equivalents (IL-1α release). Type of data set: cell-based, human. Particulars: Table 12; vs C30. An excerpt:
The EpiDerm™ Skin Model provided by MatTek Corporation was used in this study. The target cells are epithelial, derived from human skin. The test materials are applied directly to the culture surface, at air interface, so that undiluted and/or end use dilutions can be tested directly.
The experimental design used in this study consisted of a definitive assay to determine the release of one cytokine. Where tissue viability is not decreased by 50% as compared to the negative control tissue (as measured by MTT reduction), the inflammatory potential is then measured by the synthesis/release of the cytokine IL-1α.
In the treatment phase six skin equivalents are used for each diluted test product, individual results are averaged to provide overall response. 100 μl is applied to each equivalent for 1 hour of diluted product (10% dilution) exposure followed by 5 rinses of Ca, Mg Free PBS solution. Each Tissue is placed in a 6 well tray with assay medium for each rinse and returned to incubation for 24 hours. Following incubation tissues are assessed for cytokine responses of IL-1α.

Data set [1] relates to Madin-Darby canine kidney (MDCK) cells. The data set can be described thus: Trans-Epithelial Permeability Test (TEP Test). Type of data set: cell-based. Particulars: Table 5 surfactant system. How it is done: The following Trans-Epithelial Permeability (“TEP”) and Tensiometry tests are used in the instant methods and in the following Examples. In particular, as described above, the TEP test is used to determine when a composition is a reduced irritation composition according to the present invention.
Irritation to the eyes and/or skin expected for a given formulation is measured in accordance with the Invittox Protocol Number 86, the “Trans-epithelial Permeability (TEP) Assay” as set forth in Invittox Protocol Number 86 (May 1994), incorporated herein by reference. In general, the ocular and/or skin irritation potential of a product can be evaluated by determining its effect on the permeability of a cell layer, as assessed by the leakage of fluorescein through the layer. Monolayers of Madin-Darby canine kidney (MDCK) cells are grown to confluence on microporous inserts in a 24-well plate containing medium or assay buffer in the lower wells. The irritation potential of a product is evaluated by measuring the damage to the permeability barrier in the cell monolayer following a 15 minute exposure to dilutions of the product. Barrier damage is assessed by the amount of sodium fluorescein that has leaked through to the lower well after 30 minutes, as determined spectrophotometrically. […]

Regarding “Polyglyceryl-10 Laurate [Polyglycerol-10 Laurate]”, in the data set with EpiDerm™ Skin Model, the “effect of PGE on mildness of the surfactant system” value is “improve the mildness”. The “PG-10 Laurate concentration at plateau of mildness improvement (TEP Test)” value in data set [1] is “around 0.5%”.
